Biological target: T1, human melanocortin-3 (MC-3) receptors (Homo sapiens, UniProt P41968)
T1 construct: expressed in transfected cells; membrane fraction used
Experiment: Melanocortin receptor binding assay, 125I-NDP-alpha-MSH competition, MC-3
Conditions: HEK 293 cell membranes; about […] 125I-NDP-α-MSH; 180 minutes at 25 C; read-out: hMC3 IC50 (nM) 125I NDP-MSH
Method: Human embryonic kidney (HEK) 293 cells stably expressing human melanocortin-3 (MC-3) or human melanocortin-4 (MC-4) receptors were used for ^125 I-[Nle4,dPhe7]α-melanocte stimulating hormone (NDP-α-MSH) and ^125 I-AGRP radioligand binding studies.
For ^125 I-NDP-α-MSH binding, cells were collected in phosphate buffered saline (PBS) and homogenized in Buffer A containing about 25 mM HEPES and about 0.32 M sucrose (pH 7.4), after which the homogenate was spun at 48,000×g for 12 minutes. The resulting pellet, which contained the cell membrane fraction, was resuspended in Buffer B containing about 25 mM HEPES, Modified Eagle's medium (without phenol red), about 0.1 percent bovine serum albumin (BSA), about 0.1 mg/ml soybean trypsin inhibitor (STI) and about 0.1 mg/ml 4-(2-aminoethyl)-benzenesulfonyl fluoride (AEBSF) (pH 7.4), and spun at 48,000×g for 12 minutes. This step was repeated one additional time, and the final pellet was resuspended in Buffer B to a concentration of about 4 mg wet weight of cell membrane per ml.
The binding reaction was initiated by the addition of cell membrane extract (about 50 μl) to wells containing about 0.15 nM ^125 I-NDP-α-MSH (2000 Ci/mmole, Amersham, Arlington Heights, Ill.) and varying concentrations of unlabeled AGRP/ASP peptides. The final assay volume was 100 μl. […] Radioactivity was quantified using a Packard TopCount. […]

The chains behind the UniProt entries cited, without tags or fusion partners. Where a name states a change or a piece, a line headed by the entry shows the natural chain unless it says otherwise.
UniProt P41968: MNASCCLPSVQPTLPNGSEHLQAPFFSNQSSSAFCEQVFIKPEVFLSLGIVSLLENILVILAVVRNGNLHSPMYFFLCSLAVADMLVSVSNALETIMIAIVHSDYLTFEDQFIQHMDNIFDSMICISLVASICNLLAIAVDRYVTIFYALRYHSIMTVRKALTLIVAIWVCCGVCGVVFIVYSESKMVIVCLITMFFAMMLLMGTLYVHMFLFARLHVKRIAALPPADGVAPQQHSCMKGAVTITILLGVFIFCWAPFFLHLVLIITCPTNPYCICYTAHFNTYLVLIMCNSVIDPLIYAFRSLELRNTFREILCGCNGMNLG

With “Cys-Abu-Asp-Pro-Cys-Ala-Thr-Abu-Tyr-Cys-Arg-Phe-Phe-Asn-Ala-Phe-Cys-Tyr-Cys-Arg-Lys-Leu-Gly-Thr-Ala-Met-Asn-Pro-Cys-Ser-Arg-Thr [SEQ ID NO:8]” the IC50 was greater than 1000 nM.
